Measured values published in PubChem BioAssay (NCI).
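Dose response: 5 concentrations. Exposure: 48 h. Format: 96-well plates. Endpoint: linear interpolation; highest concentration if not reached. The concentration for 50% growth inhibition is given as GI50. Definition used: TGI = concentration required for complete inhibition of growth.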

Key:
Test in all cases: inhibition of tumour cell growth, NCI panel, 48 h
[1] = test system: SK-OV-3 ovarian
[2] = test system: MDA-MB-435
[3] = test system: COLO 205 colon
[4] = test system: OVCAR-4 ovarian
[5] = test system: MDA-N
[6] = test system: A498 renal
[7] = test system: HS 578T breast
[8] = test system: MOLT-4 leukemia
[9] = test system: T-47D breast
[10] = test system: SN12C renal
[11] = test system: SF-295 CNS
[12] = test system: HOP-92 NSCLC
[13] = test system: HCT-116 colon
[14] = test system: EKVX NSCLC
[15] = test system: SK-MEL-28 melanoma
[16] = test system: LOX IMVI melanoma
[17] = test system: HCT-15 colon
[18] = test system: NCI-H322M lung
[19] = test system: HL-60(TB) leukemia
[20] = test system: UACC-62 melanoma
[21] = test system: HOP-62 NSCLC
[22] = test system: OVCAR-5 ovarian
[23] = test system: A549 NSCLC
[24] = test system: ACHN renal
[25] = test system: NCI-H522 lung
[26] = test system: SW-620 colon
[27] = test system: SK-MEL-5 melanoma

Structure (SMILES): O=[As]c1ccc(S(=O)(=O)NCCO)cc1 (centres undefined)
- GI50 [1]: > 100 µM
- TGI [1]: > 100 µM
- GI50 [2]: > 100 µM
- TGI [2]: > 100 µM
- GI50 [3]: > 100 µM
- TGI [3]: > 100 µM
- GI50 [4]: > 100 µM
- TGI [4]: > 100 µM
- GI50 [5]: > 100 µM
- TGI [5]: > 100 µM
- GI50 [6]: > 100 µM
- TGI [6]: > 100 µM
- GI50 [7]: > 100 µM
- TGI [7]: > 100 µM
- GI50 [8]: > 100 µM
- TGI [8]: > 100 µM
- GI50 [9]: > 100 µM
- TGI [9]: > 100 µM
- GI50 [10]: > 100 µM
- TGI [10]: > 100 µM
- GI50 [11]: > 100 µM
- TGI [11]: > 100 µM
- GI50 [12]: > 100 µM
- TGI [12]: > 100 µM
- GI50 [13]: > 100 µM
- TGI [13]: > 100 µM
- GI50 [14]: > 100 µM
- TGI [14]: > 100 µM
- GI50 [15]: > 100 µM
- TGI [15]: > 100 µM
- GI50 [16]: > 100 µM
- TGI [16]: > 100 µM
- GI50 [17]: > 100 µM
- TGI [17]: > 100 µM
- GI50 [18]: > 100 µM
- TGI [18]: > 100 µM
- GI50 [19]: > 100 µM
- TGI [19]: > 100 µM
- GI50 [20]: > 100 µM
- TGI [20]: > 100 µM
- GI50 [21]: > 100 µM
- TGI [21]: > 100 µM
- GI50 [22]: > 100 µM
- TGI [22]: > 100 µM
- GI50 [23]: > 100 µM
- TGI [23]: > 100 µM
- GI50 [24]: > 100 µM
- TGI [24]: > 100 µM
- GI50 [25]: > 100 µM
- TGI [25]: > 100 µM
- GI50 [26]: > 100 µM
- TGI [26]: > 100 µM
- GI50 [27]: > 100 µM
- TGI [27]: > 100 µM
